The numbers were not newly measured in patent US12455270B2, “Mesh for dissolution test” (Shionogi & Co., Ltd., priority 2019, dated 2025), which cites them from elsewhere.

The conditions of this data set: input parameter of GastroPlus simulation.

Turning to `NC(=O)N1c2ccccc2C=Cc2ccccc21` [Carbamazepine], the k21 is 0.337 h⁻¹.
